Tests used:
[1] = biological target: human serum albumin (HSA) (Homo sapiens, UniProt P02768); test: HSA binding by rapid equilibrium dialysis (RED); settings: 10 µM compound, 4 g/L HSA in PBS pH 7.4, 37 °C, 4.5 hours
[2] = UV-pH titration, pKa in aqueous medium (SiriusT3 fast UV pKa method); settings: absence of HSA, ISA-water 0.15 M KCl, 25.0 °C

Chains of the proteins cited; added tags and fusions are not shown. Residues count along the entry.
UniProt P02768, 25-609: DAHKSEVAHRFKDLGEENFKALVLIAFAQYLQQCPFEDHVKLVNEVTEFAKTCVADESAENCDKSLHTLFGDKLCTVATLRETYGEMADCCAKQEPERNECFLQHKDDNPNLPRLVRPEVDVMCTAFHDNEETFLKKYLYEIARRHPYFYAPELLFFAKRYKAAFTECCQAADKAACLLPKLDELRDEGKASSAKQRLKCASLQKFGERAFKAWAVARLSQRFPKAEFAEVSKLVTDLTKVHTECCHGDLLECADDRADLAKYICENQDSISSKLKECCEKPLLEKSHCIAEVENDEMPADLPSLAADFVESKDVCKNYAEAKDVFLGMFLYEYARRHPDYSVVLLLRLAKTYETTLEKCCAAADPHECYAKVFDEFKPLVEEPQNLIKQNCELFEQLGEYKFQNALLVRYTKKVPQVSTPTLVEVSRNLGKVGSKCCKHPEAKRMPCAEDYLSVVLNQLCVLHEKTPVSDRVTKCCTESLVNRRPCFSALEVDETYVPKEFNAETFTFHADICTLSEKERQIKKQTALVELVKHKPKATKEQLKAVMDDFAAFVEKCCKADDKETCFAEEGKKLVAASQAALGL

HSA% (RED) [1]: 96.8 ± 0.0%
Exp. aqueous pKa1 (pKa of monoprotic APIs) [2]: 1.14 ± 0.03
Exp. aqueous pKa2 [2]: 5.21 ± 0.01
Substance: Tenoxicam
